Measurements as given in patent publication US20240150368A1, “ULK INHIBITORS AND METHODS OF USE THEREOF” (Deciphera Pharmaceuticals, LLC, priority 2022, published 2024).

The chains behind the UniProt entries cited, without tags or fusion partners. A line that says so, or that is headed by a name, gives the form on record, which may keep a tag or linker. Residues count along the entry.
UniProt Q8IYT8, 1-306 with tags or gaps: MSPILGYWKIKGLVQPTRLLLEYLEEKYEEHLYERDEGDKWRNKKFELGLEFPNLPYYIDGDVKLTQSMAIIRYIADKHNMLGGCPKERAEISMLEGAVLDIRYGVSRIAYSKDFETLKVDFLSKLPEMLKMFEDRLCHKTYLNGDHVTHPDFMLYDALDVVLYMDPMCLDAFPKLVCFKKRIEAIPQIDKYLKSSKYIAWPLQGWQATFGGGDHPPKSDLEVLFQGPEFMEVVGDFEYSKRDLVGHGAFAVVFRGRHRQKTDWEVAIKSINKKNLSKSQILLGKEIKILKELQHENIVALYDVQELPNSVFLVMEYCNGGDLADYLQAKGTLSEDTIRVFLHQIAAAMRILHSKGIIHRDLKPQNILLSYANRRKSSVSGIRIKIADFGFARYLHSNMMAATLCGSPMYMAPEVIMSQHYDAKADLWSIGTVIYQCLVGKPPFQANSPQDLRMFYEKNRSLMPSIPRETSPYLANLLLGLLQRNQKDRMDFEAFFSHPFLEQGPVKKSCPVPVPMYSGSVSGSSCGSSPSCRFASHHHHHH
UniProt O75385, 1-283 E37A/K38A: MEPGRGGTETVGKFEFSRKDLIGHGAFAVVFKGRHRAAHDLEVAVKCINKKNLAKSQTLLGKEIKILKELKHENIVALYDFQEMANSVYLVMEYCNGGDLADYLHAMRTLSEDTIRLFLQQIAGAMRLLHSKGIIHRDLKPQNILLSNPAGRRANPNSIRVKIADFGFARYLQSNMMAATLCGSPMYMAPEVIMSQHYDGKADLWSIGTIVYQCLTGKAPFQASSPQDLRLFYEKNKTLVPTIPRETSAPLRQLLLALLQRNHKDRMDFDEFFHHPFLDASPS

How the values were obtained:
[1] = tested on: ULK kinase substrate ATG13 (pS318-ATG13) in A549 (KRAS mutant) cells; assay: pATG13 levels of mutant KRas A549 cells after treatment with ULK inhibitors in combination with trametinib (ELISA); conditions: read-out: A549 pATG13 ELISA, IC50
Procedure: Cellular Inhibition of ULK Kinase Substrate ATG13 Protein pATG13 Levels of Mutant KRas A549 Cells after Treatment with ULK Inhibitors in Combination with Trametinib
(§1) A549 (KRAS mutant) human lung cancer cells (6,000 cells/well) were added to a 384-well tissue-culture treated plate in 50 μL of pre-warmed DMEM medium supplemented with 10% characterized fetal bovine serum (Invitrogen, Carlsbad, CA), 100 units/mL penicillin G, and 100 μg/mL streptomycin and allowed to grow overnight at 37° C., 5% CO2, and 95% humidity. The following day, 10 μL of media containing trametinib or DMSO as a control was added to wells. The final concentration of trametinib in wells was 250 nM. A dose response of a test compound (0.6 μL per well) was added. DMSO (0.6 μL) was added to control wells. The plate was briefly shaken to mix wells and then incubated at 37° C. overnight. The next day, the media was aspirated and cells were washed with Dulbecco's Phosphate Buffered Saline (Gibco). […]
(§2) Cellular levels of phospho-Serine 318 ATG13 (pATG13) were measured via an ELISA method. […] The plate was analyzed at on a plate reader measuring absorbance at 450 nm and 540 nm (background). Signal was calculated by first subtracting the background absorbance at 540 nm from the absorbance at 450 nm for each well. Next, the background corrected absorbance at 450 nm from blank wells was subtracted from test wells. […]

[2] = target: ULK2 kinase (Homo sapiens, UniProt Q8IYT8); assay: Biochemical assay for ULK2 (coupled pyruvate kinase/lactate dehydrogenase assay); conditions: read-out: ULK2 (inhibition of biochemical activity), IC50; 1 mM ATP, 1 nM ULK2
Procedure: Biochemical Assay for ULK2 (SEQ. ID NO: 2)
Activity of ULK2 kinase was determined spectroscopically using a coupled pyruvate kinase/lactate dehydrogenase assay that continuously monitors the ATP hydrolysis-dependent oxidation of NADH (e.g., Schindler et al. Science (2000) 289: 1938-1942). Assays were conducted in 384-well plates (100 μL final volume) using 1 nM ULK2 (Signal Chem U02-11G), 200 μM ULKtide, 1.5 units pyruvate kinase, 2.1 units lactate dehydrogenase, 1 mM phosphoenol pyruvate, 0.28 mM NADH and 1 mM ATP in assay buffer (100 mM Tris, pH 7.5, 15 mM MgCl2, 0.5 mM DTT, 0.1% octyl-glucoside, 0.002% (w/v) BSA, and 0.002% Triton X-100). Inhibition of ULK2 was measured by adding serial diluted test compound (final assay concentration of 1% DMSO). A decrease in absorption at 340 nm was monitored continuously for 6 h at 30° C. on a multi-mode microplate reader (BioTek). The reaction rate was calculated using the 2-3 h time frame. The reaction rate at each concentration of compound was converted to percent inhibition using controls (i.e., reaction with no test compound and reaction with a known inhibitor) and IC50 values were calculated by fitting a four-parameter sigmoidal curve to the data using Prism (GraphPad software).

[3] = tested on: ULK kinase substrate ATG13 (pS318-ATG13) in MiaPaCa-2 cells; assay: pATG13 levels of mutant KRas MiaPaCa-2 cells after treatment with ULK inhibitors in combination with trametinib (ELISA); conditions: read-out: MiaPaca-2 pATG13 ELISA, IC50
Procedure: pATG13 Levels of Mutant KRas MiaPaCa-2 Cells after Treatment with ULK Inhibitors in Combination with Trametinib
as §1, with “MiaPaCa-2” for “A549 (KRAS mutant)”, “pancreatic” for “lung”, “(10000” for “(6,000”, “G,” for “G, and”, “streptomycin, and 2.5% Horse Serum” for “streptomycin”
as §2

[4] = tested on: ULK kinase substrate ATG13 (pS318-ATG13) in HCT-116 cells; assay: pATG13 levels of mutant KRas HCT-116 cells after treatment with ULK inhibitors in combination with trametinib (ELISA); conditions: read-out: HCT-116 pATG13 ELISA, IC50
Procedure: pATG13 Levels of Mutant KRas HCT-116 Cells after Treatment with ULK Inhibitors in Combination with Trametinib
as §1, with “HCT-116” for “A549 (KRAS mutant)”, “colon” for “lung”, “(10000” for “(6,000”
as §2

[5] = tested on: ULK kinase substrate ATG13 (pS318-ATG13) in T24 cells; assay: pATG13 levels of mutant HRas T24 cells after treatment with ULK inhibitors in combination with trametinib (ELISA); conditions: read-out: T24 pATG13 ELISA, IC50, in combination with trametinib 250 nM
Procedure: pATG13 Levels of Mutant HRas T24 Cells after Treatment with ULK Inhibitors in Combination with Trametinib
T24 human urinary bladder cancer cells (25000 cells/well) were added to a 96-well tissue-culture treated plate in 100 μL of pre-warmed DMEM medium supplemented with 10% characterized fetal bovine serum (Invitrogen, Carlsbad, CA), 100 units/mL penicillin G, and 100 μg/mL streptomycin and allowed to grow overnight at 37° C., 5% CO2, and 95% humidity. The following day, 100 μL of media containing trametinib or DMSO as a control was added to wells. The final concentration of trametinib in wells was 250 nM. A dose response of a test compound (0.5 μL per well) was added. DMSO (0.5 μL) was added to control wells. The plate was briefly shaken to mix wells and then incubated at 37° C. overnight. The next day, the media was aspirated and cells were washed with Dulbecco's Phosphate Buffered Saline (Gibco). […]
as §2

[6] = target: ULK1 kinase (Homo sapiens, UniProt O75385, E37A/K38A); assay: Biochemical assay for ULK1 (coupled pyruvate kinase/lactate dehydrogenase assay); conditions: read-out: ULK1 (inhibition of biochemical activity), IC50; 1 mM ATP, 0.1 nM ULK1
Procedure: Biochemical Assay for ULK1 (SEQ. ID NO: 1)
Activity of ULK1 kinase was determined spectroscopically using a coupled pyruvate kinase/lactate dehydrogenase assay that continuously monitors the ATP hydrolysis-dependent oxidation of NADH (e.g., Schindler et al. Science (2000) 289: 1938-1942). Assays were conducted in 384-well plates (100 μL final volume) using 0.1 nM ULK1 (from Beryllium), 0.075 mM peptide substrate (YANWLAASIYLDGKKK), 1.5 units pyruvate kinase, 2.1 units lactate dehydrogenase, 1 mM phosphoenol pyruvate, 0.28 mM NADH and 1 mM ATP in assay buffer (100 mM Tris, pH 7.5, 15 mM MgCl2, 0.5 mM DTT, 0.004% (w/v) BSA, and 0.004% Triton X-100). Inhibition of ULK1 was measured by adding serial diluted test compound (final assay concentration of 1% DMSO). A decrease in absorption at 340 nm was monitored continuously for 6 h at 30° C. on a multi-mode microplate reader (BioTek). The reaction rate was calculated using the 2-3 h time frame. The reaction rate at each concentration of compound was converted to percent inhibition using controls (i.e., reaction with no test compound and reaction with a known inhibitor) and IC50 values were calculated using software routines in Prism (GraphPad software).

Measured: IC50

CC/C(Nc1ccc(N2CCN(C)CC2)cc1)=C1/C(=O)Nc2ccc(C(=O)NCC(F)(F)F)cc21
10 to 100 nM: [2] | [6]
< 100 nM: all other assays above
